The test concerns the target N-terminal NanoLuc-tagged EGFR (NLuc-EGFR) (human) (UniProt P00533). Description: FRET or BRET; NanoBRET saturation binding on living HEK293 cells stably expressing NLuc-EGFR; fluorescent EGF 0-100 nM, with or without 100 nM unlabelled EGF (non-specific binding); 30 min at 37 °C; HBSS with 0.2% BSA, pH 7.45. A general note: BRET reads energy transfer from a luciferase to a nearby fluorophore.

pKd: −log10 of the molar value.

In the case of “Epidermal Growth Factor fluorescently labelled with Alexa Fluor 647 (ligand)”, the pKd was 8.46.

For orientation: pKd means −log10 of the Kd, conventionally taken in molar units. The low end stands for a high Kd, the high end for a low Kd.
